Patent US11759436B2, “Dosage regimen of an S1P receptor modulator” (Novartis AG, priority 2009, dated 2023)

Tested on: patients with Relapsing-remitting Multiple Sclerosis
Test: Study of oral fingolimod 0.5 mg/day or 1.25 mg/day vs interferon beta1-a in patients with RRMS
Format: in vivo, human
Procedure: Study: Two different daily dosages of fingolimod (0.5 mg and 1.25 mg) have been orally administered to patients with Relapsing-remitting Multiple Sclerosis during 24-month 1292 patients with RRMS from 172 centers in 18 countries are randomized to receive oral fingolimod, in a dose of 0.5 mg/day or 1.25 mg/day, or interferon beta1-a 30 μg intramuscularly once a week. Patients randomized to fingolimod receive placebo injections once a week, and those randomized to interferon beta1-a receive a placebo pill once a day. The patients are seen clinically every month for 3 months and every 3 months thereafter. The Expanded Disability Status Scale (EDSS) is performed every 3 months, the MS Functional Composite (MSFC) every 6 months, and MRI annually. Monitoring by ophthalmic examination, dermatologic examination, pulmonary function tests, chest X-ray and/or CT, Holter monitoring, and echocardiography are performed. Participants who completed 1 year on treatment are offered an optional extension phase. Those randomized to fingolimod continue on their assigned dose, and those in the interferon beta1-a group are randomized to the 2 fingolimod doses.

## Interferon beta1-a: comparator given 30 μg intramuscularly once a week to RRMS patients
RRMS patients, interferon beta1-a 30 μg intramuscularly once a week
  Annualized relapse rate: 0.33
RRMS patients, interferon beta1-a group
  proportion of relapse-free patients: 69%
human, in vivo
  Basal-cell carcinoma: 1 (0.2) n (%)
  Breast cancer: 0 n (%)
  Malignant melanoma: 0 n (%)
  Squamous-cell carcinoma: 1 (0.2) n (%)
